{"source": "patent US11633495B2", "about": "“Compounds and compositions for immunotherapy” (priority 2014, dated 2023)", "key": {"[1]": {"tested_on": "subcutaneous patient derived gastric tumor", "experiment": "Therapeutic efficacy (survival) in PDX gastric tumor model", "type": "in vivo, BALB/c nu/nu nude mice", "settings": "10 mg/kg intravenously, weekly for a period of 45 days; mice bearing subcutaneous patient derived gastric tumor; FIG. 4C", "from_the_text": "(§1) For development of patient-derived gastric carcinoma xenograft (PDX) mouse models, female Balb/c nude mice (from SLAC, Shanghai, China) of 6-8 weeks old were used for tumor fragment implantation. Animals were fed with normal nude mice diet and housed in SPF animal facility in accordance with the Guide for Care and Use of Laboratory Animals and regulations of the Institutional Animal Care and Use Committee. Patent STO #69 gastric tumor fragments of about 15-30 mm^3 in size were implanted (s.c.) into right flanks of Balb/c nude mice.\n(§2) Drugs were administered by i.v. route with 5-20 mg/kg of antibody or 20 mg/kg of Tarceva or reference drug, QWKx3. Tumors were measured once a week by caliper to determine its subcutaneous growth. Tumors were measured twice a week in two dimensions with calipers. Tumor volume was calculated using following formula: tumor volume=(length×width2)×0.5. Average tumor volumes or body weights were plotted using graph program Prism 5 (GraphPad). An endpoint for efficacy study was set at 30-45 days post-first treatment or when a tumor size reached above 2000 mm3, whichever came first. If a mouse lose more than 20% of body weight or is very sick and cannot get to adequate food or water, it will be removed from the study and euthanized. Tumors were collected from mice at the end point, half frozen in LN2 and half fixed in formalin for preparing FFPE tissues."}, "[2]": {"experiment": "Body weight variations during and after therapy, PDX gastric tumor model", "type": "in vivo, BALB/c nu/nu nude mice", "settings": "10 mg/kg intravenously, weekly for 45 days, FIG. 4B", "from_the_text": "as §1, §2"}}}
{"substance": "Trastuzumab: humanized monoclonal antibody that acts on human epidermal growth factor receptor extracellular domain of Her2", "values": [{"measurement": "Survival curves of treatment and control groups", "setting": "[1]", "result": "substantial prolongation"}, {"measurement": "Body weight variations of the mice during and after therapy", "setting": "[2]", "result": "No detectable weight loss"}]}
{"substance": "Trastuzumab MC-vc-TLRL", "values": [{"measurement": "Survival curves of treatment and control groups", "setting": "[1]", "result": "substantial prolongation"}, {"measurement": "Body weight variations of the mice during and after therapy", "setting": "[2]", "result": "No detectable weight loss"}]}
